Values of other authors, collected in patent publication US9855226B2, “d-methadone for the treatment of psychiatric symptoms” (Relmada Therapeutics, Inc., priority 2012, dated 2018).

Tested on: opioid receptors
Settings: cited from earlier work

SMILES | Opioid receptor binding / activity
CCC(=O)C(C[C@H](C)N(C)C)(c1ccccc1)c1ccccc1 [d-methadone] | without opioid receptor activity
CCC(=O)C(C[C@@H](C)N(C)C)(c1ccccc1)c1ccccc1 [l-methadone, reference compound] | binds to opioid receptors
